Results as given in patent publication US20070191406A1, “Heterocyclic antiviral compounds” (Roche Palo Alto LLC, priority 2006, published 2007).

Chains of the proteins cited; added tags and fusions are not shown.
UniProt P51681, whole entry: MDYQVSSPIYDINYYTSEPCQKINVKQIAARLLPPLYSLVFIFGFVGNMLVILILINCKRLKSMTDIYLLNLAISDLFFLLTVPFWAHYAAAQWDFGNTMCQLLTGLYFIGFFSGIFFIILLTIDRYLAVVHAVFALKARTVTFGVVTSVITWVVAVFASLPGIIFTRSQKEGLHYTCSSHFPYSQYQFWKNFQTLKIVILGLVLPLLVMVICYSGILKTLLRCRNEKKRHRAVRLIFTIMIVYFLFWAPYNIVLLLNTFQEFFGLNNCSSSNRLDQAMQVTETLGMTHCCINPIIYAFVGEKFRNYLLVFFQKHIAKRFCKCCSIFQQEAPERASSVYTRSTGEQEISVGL

Target: CCR5 (Homo sapiens, UniProt P51681)
Assay: CCR5-Mediated CCF Assay
Settings: Hela-R5 cells (gp160 from R5-tropic virus, HIV-1 Tat) co-cultured 24 hrs with CEM-NKr-CCR5-Luc cells; luciferase readout
Protocol: CCF assay was performed as described before (C. Ji, J. Zhang, N. Cammack and S. Sankuratri, J. Biomol. Screen. 2006 11(6):652-663). Hela-R5 cells (express gp160 from R5-tropic virus and HIV-1 Tat) were plated in 384 well white culture plates (BD Bioscience, Palo Alto, Calif.) at 7.5×10^3 cells per well in phenol red-free Dulbecco's Modified Eagle Medium (DMEM) supplemented with 10% FBS, 1× Pen-Strep, 300 μg/mL G418, 100 μg/mL hygromycin, and 1 μg/mL Doxycycline (Dox) (BD Bioscience, Palo Alto, Calif.), using Multimek (Beckman, Fullerton, Calif.) and incubated at 37° C. overnight to induce the expression of gp160. Ten μL diluted compounds in medium containing 5% DMSO were added to the cells, followed by the addition of CEM-NKr-CCR5-Luc (obtained from NIH AIDS Research & Reference Reagents Program) that expresses CD4 and CCR5 and carries a HIV-2 long terminal repeat (LTR)-driven luciferase reporter gene at 1.5×10^4 cells/15 μL/well and incubated for 24 hrs. At the end of co-culture, 15 μL of Steady-Glo luciferase substrate was added into each well, and the cultures were sealed and gently shaken for 45 min. The luciferase activity were measured for 10 sec per well as luminescence by using 16-channel TopCount NXT (PerkinElmer, Shelton, Conn.) with 10 min dark adaptation and the readout is count per second (CPS). […]

SMILES: Cc1ncnc(C)c1C(=O)N1C[C@H]2CN(CC[C@H](NC(=O)[C@@H]3CC[C@@H](OC(=O)C(C)C)C3)c3cccc(F)c3)C[C@H]2C1
- IC50: 4.2 nM
